Paper PMC4104544 (Cell, 2014)

Chains of the proteins cited; added tags and fusions are not shown. Residues count along the entry.
UniProt P08238, 2-724: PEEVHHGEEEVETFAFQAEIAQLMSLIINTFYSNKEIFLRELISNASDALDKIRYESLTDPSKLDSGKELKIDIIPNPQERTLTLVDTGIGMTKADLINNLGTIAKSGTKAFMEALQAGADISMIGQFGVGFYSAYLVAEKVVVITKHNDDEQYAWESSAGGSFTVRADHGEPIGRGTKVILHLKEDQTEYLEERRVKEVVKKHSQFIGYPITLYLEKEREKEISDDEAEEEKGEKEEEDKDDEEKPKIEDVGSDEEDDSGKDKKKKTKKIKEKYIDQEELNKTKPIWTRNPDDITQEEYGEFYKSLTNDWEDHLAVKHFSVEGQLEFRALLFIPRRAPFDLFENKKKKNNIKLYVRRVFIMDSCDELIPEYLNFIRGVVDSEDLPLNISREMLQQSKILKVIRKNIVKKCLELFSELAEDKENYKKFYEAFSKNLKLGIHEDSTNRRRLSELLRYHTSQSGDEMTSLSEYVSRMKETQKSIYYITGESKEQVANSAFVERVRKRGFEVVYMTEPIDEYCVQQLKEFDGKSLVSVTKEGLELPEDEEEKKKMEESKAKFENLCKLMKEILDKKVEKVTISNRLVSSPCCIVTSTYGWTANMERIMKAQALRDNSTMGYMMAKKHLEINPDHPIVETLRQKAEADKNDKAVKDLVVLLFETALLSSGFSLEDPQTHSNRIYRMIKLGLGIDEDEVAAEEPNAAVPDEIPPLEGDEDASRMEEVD

Molecular target: Hsp90β (Homo sapiens, UniProt P08238)

## CC(C)c1cc(-c2n[nH]c(=O)n2-c2ccc3c(ccn3C)c2)c(O)cc1O [ganetespib]
  LUMIER in 293T cells: loss of client interactions after 1 h at 1 μM: Ganetespib treatment had a strong effect on most Hsp90/client interactions.
